# Literature values, collected in patent US20160034667A1, “TAILORED DRUG THERAPIES AND METHODS AND SYSTEMS FOR DEVELOPING SAME” (COMPANION DX REFERENCE LAB, LLC, priority 2014, published 2016).
# Conditions: in vivo
smiles,measurement,value
Cn1c(=O)c2[nH]cnc2n(C)c1=O [Theophylline],Critical,>30 µg/mL
